In patent publication US8846903B2, “Acyl-urea derivatives and uses thereof” (Yissum Research Development Company of the Hebrew …, priority 2007, dated 2014):

Key:
in vivo = conditions: rat, po
rats [1] = test: Neurotoxicity, gait and stance test in rats (TD50); conditions: oral administration, median neurological toxic dose
rats [2] = test: Subcutaneous metrazol seizure threshold test (scMet) in rats; assay type: in vivo
Text: (§1) In the first model, the maximal electroshock seizure test (MES) was used to show efficacy for antiepileptic agents against partial and generalized seizure type epilepsy, the common epilepsy among therapy resistant epileptic patients. In the second model, the subcutaneous metrazol test (scMet) was used to measure seizure threshold and was used as a standard screening procedure to show efficacy for agents against seizure threshold and absence seizures. The models and the biological activity protocols followed in the examples presented herein have been described in the art.
Subcutaneous Metrazole Seizure Threshold Test (scMet) assay measures the ability of an agent to elevate seizure threshold and is considered to model generalized absence seizures. The assay was performed by subcutaneous injection of 85 mg/kg of the convulsant agent metrazole that induces clonic seizures in at least 97% of all animal models (rats and mice).

rats [3] = test: Maximal electroshock seizure test (MES) in rats; assay type: in vivo
Text: as §1
Briefly, Maximal Electroshock Seizure (MES) assay measures drug capacity to prevent seizure spread and is thus considered to model generalized tonic-clonic seizures. The assay was conducted using a supra-maximal current of 50 mA and 60 Hz for 0.2 seconds in mice, and 150 mA and 60 Hz for 0.2 seconds in rats. The current was delivered to the subjects by means of corneal electrodes to produce tonic hind limb extension. Animals not displaying tonic hind limb extension were considered affected positively by the tested compound.

SMILES | TD50 (in vivo) | TD50 in Rats (rats [1]) | Fraction of rats which responded to the treatment (rats [2]; dose 25 mg/kg) | Fraction of rats which responded to the treatment (rats [2]; dose 40 mg/kg) | Fraction of rats which responded to the treatment (rats [2]; dose 50 mg/kg) | Fraction of rats which responded to the treatment (rats [2]; dose 100 mg/kg) | Fraction of rats which responded to the treatment (rats [3]; dose 6 mg/kg) | Fraction of rats which responded to the treatment (rats [3]; dose 12 mg/kg) | Fraction of rats which responded to the treatment (rats [3]; dose 25 mg/kg) | Fraction of rats which responded to the treatment (rats [3]; dose 50 mg/kg)
CCCC(CCC)C(=O)NC(N)=O [Compound 6, 1-(2-propyl-pentanoyl)-urea] | 232 mg/kg | – | – | – | – | – | – | – | – | –
CC(C)C(C(=O)NC(N)=O)C(C)C [Compound 2, 1-(2-isopropyl-3-methylbutanoyl)urea] | 56 mg/kg | 55.6 mg/kg | – | – | – | – | – | – | – | –
CCCC(C(=O)NC(N)=O)C(C)C (racemic) [Compound 1, 1-(2-isopropylpentanoyl)urea] | – | – | 1/8 | 2/8 | 5/8 | 8/8 | 0/8 | 3/8 | 6/8 | 8/8
